Experiments:
BTK(WT) kinase = BTK(WT) kinase (Homo sapiens, UniProt Q06187); assay: Inhibitory activity against BTK(WT) kinase; details: read-out: BTK(WT) kinase inhibition IC50(nM )
Description: (§1) BTK kinase solution (concentration: 0.003 ng/µL) was added to assay wells at 6 µL/well, and different compounds dissolved in DMSO were added to the assay wells separately using a nanoliter pipettor, such that the final concentrations of the compounds were 1000 nM to 0.244 nM. The wells were set in duplicate, and a control well was set. After a 30-min incubation of the above system, ATP (concentration: 50 µM) was mixed with ULight-poly GT substrate (manufacturer: PerkinElmer, concentration: 0.5 µM) in a ratio of 1:1, and the mixture was added to the assay wells at 4 µL/well. The resulting mixture was left to react at room temperature for 2 h, and then 5 µL of EDTA was added to terminate the reaction, followed by the addition of 5 µL of a detection antibody (manufacturer: PerkinElmer, concentration: 8 nM). The mixture was incubated at room temperature for 1 h. The assay was performed using a PerkinElmer Envision multifunctional microplate reader (excitation: 320 nm, emission: 615 nm/665 nm), and IC50 was calculated by four-parameter fitting.

Amino acid sequences for entries named in this document (tags omitted). A change or cut given only in a name is not applied to a line headed by its entry.
UniProt Q06187, whole entry: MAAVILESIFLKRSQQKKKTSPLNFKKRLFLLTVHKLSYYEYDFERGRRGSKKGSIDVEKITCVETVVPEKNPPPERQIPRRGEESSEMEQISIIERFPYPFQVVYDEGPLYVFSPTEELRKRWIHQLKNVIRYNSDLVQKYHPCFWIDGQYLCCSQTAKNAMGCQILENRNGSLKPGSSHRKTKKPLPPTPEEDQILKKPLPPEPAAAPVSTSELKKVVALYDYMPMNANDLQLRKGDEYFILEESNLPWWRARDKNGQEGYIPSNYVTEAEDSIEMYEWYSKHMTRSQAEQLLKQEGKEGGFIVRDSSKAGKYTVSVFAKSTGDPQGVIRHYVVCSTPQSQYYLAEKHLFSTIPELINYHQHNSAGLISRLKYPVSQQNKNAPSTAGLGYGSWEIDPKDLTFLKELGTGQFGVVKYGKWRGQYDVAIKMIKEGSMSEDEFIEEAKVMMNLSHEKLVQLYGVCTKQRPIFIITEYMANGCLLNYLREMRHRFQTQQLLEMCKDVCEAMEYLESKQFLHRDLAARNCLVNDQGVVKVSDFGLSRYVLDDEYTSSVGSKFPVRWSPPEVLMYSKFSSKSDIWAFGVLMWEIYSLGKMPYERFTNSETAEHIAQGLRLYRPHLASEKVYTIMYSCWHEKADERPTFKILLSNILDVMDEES
UniProt Q06187, whole entry C481S: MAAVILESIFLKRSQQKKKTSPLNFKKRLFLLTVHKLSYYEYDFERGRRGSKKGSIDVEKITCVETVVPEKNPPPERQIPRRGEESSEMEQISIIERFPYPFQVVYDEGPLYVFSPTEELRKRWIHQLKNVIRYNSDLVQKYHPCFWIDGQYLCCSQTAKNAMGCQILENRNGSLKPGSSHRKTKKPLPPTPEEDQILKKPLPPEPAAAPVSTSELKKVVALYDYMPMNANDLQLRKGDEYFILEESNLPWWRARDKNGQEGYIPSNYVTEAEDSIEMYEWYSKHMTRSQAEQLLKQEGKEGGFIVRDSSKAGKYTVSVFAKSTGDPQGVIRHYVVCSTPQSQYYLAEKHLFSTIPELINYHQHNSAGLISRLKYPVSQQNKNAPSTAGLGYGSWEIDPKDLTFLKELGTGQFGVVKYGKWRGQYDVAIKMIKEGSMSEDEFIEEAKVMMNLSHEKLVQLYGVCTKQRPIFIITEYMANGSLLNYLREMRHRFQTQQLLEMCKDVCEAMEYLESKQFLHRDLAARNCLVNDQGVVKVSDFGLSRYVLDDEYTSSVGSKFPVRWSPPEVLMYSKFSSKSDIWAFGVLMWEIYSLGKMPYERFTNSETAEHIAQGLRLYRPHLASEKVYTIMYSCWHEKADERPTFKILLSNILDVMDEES

BTK(C481S) kinase = BTK(C481S) kinase (Homo sapiens, UniProt Q06187, C481S); assay: Inhibitory activity against BTK(C481S) kinase; details: read-out: BTK(C481S) kinase inhibition IC50(nM )
Description: as §1, with “BTK(C481S)” for “BTK”, “0.006” for “0.003”, “fitting. The test results are shown in Table 3, where A represents: the IC50 value ≤ 10 nM.” for “fitting.”

[1] = In vivo pharmacokinetic study in mice; details: ICR mice, 5mg/kg
Description: ICR mice weighing 20-25 g were randomly grouped after 3-5 days of acclimatization, with 6 mice in each intravenous injection group and 3 mice in each intragastric administration group. The mice were intragastrically (IG) and intravenously (IV) administered the compound solutions of the present application at a dose of 5 mg/kg. Blood collection time points for intragastric administration were 30 min, 2 h, 8 h, and 24 h, and blood collection time points for intravenous injection were 0.083 h (5 min), 0.25 h (15 min), 1 h, 2 h, 4 h, 8 h, and 24 h. Blood was collected from the orbit to prepare plasma samples to be tested. 30 µL of each of the plasma samples to be tested and a standard curve sample were taken, and an acetonitrile solution containing an internal standard was added. Supernatants were obtained by protein precipitation, diluted, and then assayed by LC/MS/MS.

OCI-LY10 cells [2] = assay: Pharmacodynamic evaluation in OCI-LY10 mouse subcutaneous xenograft tumor model; details: day 23 of administration, intragastric once daily, 20 mpk or 40 mpk
Description: SPF-grade female NOD-SCID mice (source: Shanghai Lingchang Biotech Co., Ltd.) were subcutaneously inoculated at the right axilla with OCI-LY10 cells at 1 × 10^7 cells/mouse. When the mean tumor volume reached about 180 mm^3, the animals were grouped.
The day of grouping was defined as day 0, and intragastric administration was performed once daily from day 1 at a dose of 20 mpk or 40 mpk. The tumor volume was measured twice every week, and meanwhile, the mice were weighed, and the data were recorded. The general behavior of the mice was observed and recorded every day. After the experiment was completed, the tumors were extracted, weighed, and photographed.
The detection parameters and the calculation formulas are as follows: Tumor volume TV (mm^3) = 1/2 × (a×b^2), [formula] where a represents the long diameter of the tumor, and b represents the short diameter of the tumor. Relative tumor volume RTV = TVt /TV0 , [formula] where TV0 represents the tumor volume on day 0, and TVt represents the tumor volume at each measurement. Relative tumor proliferation rate T/C (%) = (TRTV/CRTV) × 100%, [formula] where TRTV represents RTV of the treatment group, and CRTV represents RTV of the vehicle control group. Tumor volume inhibition rate TGI (TV)(%), TGI (%) = [1−(T−T0)/(C−0)] × 100%, [formula] where T represents the mean tumor volume of each treatment group; T0 represents the mean tumor volume of each treatment group on d0; C represents the mean tumor volume of the control group; C0 represents the mean tumor volume of the control group on d0. Tumor weight inhibition rate TGI (TW)(%), TGI (%) = (1−TWt/TWc) × 100%, [formula] where TWt represents the tumor weight of each treatment group; TWc represents the tumor weight of the control group. Weight change rate WCR (%) = (Wtt−Wt0)/Wt0 × 100%, [formula] where Wt0 represents the body weight of the mouse on day 0, and Wtt represents the body weight of the mouse at each measurement.

OCI-LY10 cells [3] = assay: Inhibitory activity against OCI-LY10 cell proliferation (CCK-8); details: 72 h incubation

Row | IC50 (BTK(WT) kinase) [nM] | IC50 (BTK(C481S) kinase) [nM] | AUC(0-t) ([1]; IG) [ng·h/mL] | Cmax ([1]; IG) [ng/mL] | AUC(0-t) ([1]; IV) [ng·h/mL] | CL ([1]; IV) [mL/min/kg] | T1/2 ([1]; IV) [h] | Vss ([1]; IV) [L/kg] | IC50 (OCI-LY10 cells [3]) [nM] | Structure (SMILES) | tumor volume inhibition rates (OCI-LY10 cells [2]) | tumor weight inhibition rates (OCI-LY10 cells [2])
1 | < 10 | < 10 | 10930 | 707 | 13855 | 5.08 | 9.54 | 3.779 |  | COc1ccc(F)c2ccnc(NCc3ccc(-n4ncc(Nc5ccc(N6CCN(C7COC7)CC6)c(C(O)C(F)(F)F)n5)c4C(N)=O)cc3)c12 (single isomer, unassigned) | greater than 95% | greater than 92%
2 |  |  | 2934 | 701 | 4705 | 17.5 | 4.24 | 3.015 | < 10 | NC(=O)c1c(Nc2ccc(N3CCN(C4COC4)CC3)c(C(O)C(F)(F)F)n2)cnn1-c1ccc(CNC(=O)c2cc(F)cc3cccnc23)cc1 (single isomer, unassigned) | greater than 95% | greater than 92%
3 | < 10 | < 10 | 4275 | 1874 | 9322 | 8.92 | 3.17 | 1.12 |  | NC(=O)c1c(Nc2ccc(N3CCN(C4CC4)CC3)cn2)cnn1-c1ccc(CNC(=O)c2cc(F)cc3cccnc23)cc1 | greater than 95% | greater than 92%

Source: patent publication EP4825855A1, “COMPOUND CONTAINING PYRAZOLE RING AND BICYCLIC HETEROARYL GROUP, PHARMACEUTICAL COMPOSITION THEREOF AND USE THEREOF” (dated 2026)
